Data: PubChem BioAssay AID1671463 (Sanford-Burnham Center for Chemical Genomics, 2021)
Only a part is listed here, and it is no random draw. Activity calls are given as the source filed them. No stated cut-off is given here; in the data, active means activation above about 40%; inactive means the rest.

By UniProt entry, the sequences of proteins in these tests, tags left out. Where a name states a change or a piece, a line headed by the entry shows the natural chain unless it says otherwise.
UniProt P16066: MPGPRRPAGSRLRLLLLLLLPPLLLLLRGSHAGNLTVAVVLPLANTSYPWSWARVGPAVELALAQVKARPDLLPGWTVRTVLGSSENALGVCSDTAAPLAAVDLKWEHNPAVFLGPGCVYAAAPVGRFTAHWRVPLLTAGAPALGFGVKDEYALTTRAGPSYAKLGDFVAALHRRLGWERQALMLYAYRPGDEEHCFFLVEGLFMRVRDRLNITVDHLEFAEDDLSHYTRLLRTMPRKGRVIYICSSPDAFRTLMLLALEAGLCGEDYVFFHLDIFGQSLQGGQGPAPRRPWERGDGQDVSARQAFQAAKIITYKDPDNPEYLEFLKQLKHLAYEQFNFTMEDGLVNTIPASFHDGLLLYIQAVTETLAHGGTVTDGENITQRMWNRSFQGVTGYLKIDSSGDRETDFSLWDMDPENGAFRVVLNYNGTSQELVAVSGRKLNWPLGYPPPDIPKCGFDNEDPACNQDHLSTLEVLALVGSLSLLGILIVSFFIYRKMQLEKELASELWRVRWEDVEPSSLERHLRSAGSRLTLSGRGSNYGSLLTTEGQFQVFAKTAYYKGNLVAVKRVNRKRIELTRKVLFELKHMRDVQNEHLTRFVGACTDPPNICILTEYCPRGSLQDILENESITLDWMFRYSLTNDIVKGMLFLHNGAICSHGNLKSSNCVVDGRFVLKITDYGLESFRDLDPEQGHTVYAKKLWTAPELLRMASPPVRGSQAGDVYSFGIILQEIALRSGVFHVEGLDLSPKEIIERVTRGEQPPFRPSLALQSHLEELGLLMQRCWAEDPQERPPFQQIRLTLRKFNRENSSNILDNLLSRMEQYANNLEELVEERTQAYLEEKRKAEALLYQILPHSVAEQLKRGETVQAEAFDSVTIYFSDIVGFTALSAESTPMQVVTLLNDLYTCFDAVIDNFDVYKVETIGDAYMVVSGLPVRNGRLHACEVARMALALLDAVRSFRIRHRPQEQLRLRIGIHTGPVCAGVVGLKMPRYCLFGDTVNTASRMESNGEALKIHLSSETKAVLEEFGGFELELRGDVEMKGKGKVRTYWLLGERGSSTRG

Each compound was assayed against Atrial natriuretic peptide receptor 1 (Homo sapiens) (UniProt P16066) (assay: GC-A stimulated cGMP production enhancers – HEK293 GC-A cells, cGMP TR-FRET, EC30 ANP, primary screen (AID 1671463)). Conditions: at 10 µM, stronger effect = higher value, 0% at EC30 ANP, 100% saturating ANP.

| Structure (SMILES) | activation |
| --- | --- |
| O=[N+]([O-])c1ncn(CCn2ncnc2[N+](=O)[O-])n1 | inactive: -0.15% |
| CC(C)(C)C(=O)NC(Sc1ccncn1)C(Cl)(Cl)Cl (stereo not given) | inactive: 1.52% |
| Cc1ccc(NP(=O)(Oc2ccccc2)Oc2ccccc2)nc1 | inactive: -14.3% |
| O=[N+]([O-])c1cc([N+](=O)[O-])c(CCNc2ccccc2)c([N+](=O)[O-])c1 | inactive: -5.16% |
| CCc1nc2c(n1)c1c(non1O)c1c2no[n+]1[O-] | inactive: 11.3% |
| CC(=O)N1C2C3N(C(C)=O)C1C1N(C(C)=O)C(C(N1C(C)=O)N3C(C)=O)N2C(C)=O | inactive: 1.41% |
| O=[N+]([O-])c1cccc2n[nH]nc12 | inactive: 1.07% |
| COc1ccc(C2=NCC(CBr)S2)cc1 (stereo not given) | inactive: 2.54% |
| c1cc(-c2nn[nH]n2)ccc1-c1nn[nH]n1 | inactive: 0.84% |
| CC1CCN(C(=O)Oc2c(Cl)cc(Cl)c3cccnc23)CC1 | inactive: -1.75% |
| CC(C)=N/N=C(\N)N[N+](=O)[O-] | inactive: 4.73% |
| CC(C)c1nc(Nc2ccccc2)n(P(=O)(N(C)C)N(C)C)n1 | inactive: -1.88% |
| CN(C)C(=O)OCCc1n(C)cc[n+]1C | inactive: 0.23% |
| CCN(/C(=N/P(=O)(N1CCOCC1)N1CCOCC1)N1CCOCC1)c1ccc(OC)cc1 | inactive: -1.04% |
| Nc1ccc([As](=O)(O)c2ccc(N)cc2)cc1 | inactive: -0.49% |
| C[N+]1=C2C=CC=CC=C2SC12C([N+](=O)[O-])=CC([N+](=O)[O-])=C[C-]2[N+](=O)[O-] (stereo not given) | inactive: 4.7% |
| c1nnnn1CCn1cnnn1 | inactive: 2.31% |
| O=P(Nc1nccs1)(c1ccccc1)c1ccccc1 | inactive: -4.66% |
| CC(C)C(=O)NC(Sc1ccccc1)C(Cl)(Cl)Cl (stereo not given) | inactive: -1.18% |
| O=P(Nc1nc2ccccc2s1)(c1ccccc1)c1ccccc1 | inactive: -9.6% |
| C[C@H]1OP(=O)(Oc2ccccc2)[C@H](O)[C@H](O)[C@H]1N=[N+]=[N-] (stereo not given in full) | inactive: -2.47% |
| CN(C)C1(CNC(=O)c2ccc(Cl)c(S(N)(=O)=O)c2)CCCCC1 | inactive: 0.69% |
| O=P(Nc1ccccn1)(c1ccc(Br)cc1)c1ccc(Br)cc1 | inactive: -27% |
| Nc1ccc(CCCCOc2ccccc2)cc1 | inactive: 3.66% |
| COc1ccc(N)c([N+](=O)[O-])c1[N+](=O)[O-] | inactive: 3.43% |

| Structure (SMILES) | activation |
| --- | --- |
| O=C(OC1CN2CCC1CC2)c1cccc(Cl)c1 (stereo not given) | inactive: 6.8% |
| C/C(N)=N\P(=O)(OCc1ccccc1)OCc1ccccc1 | inactive: -0.61% |
| Nc1ccc([As](=O)(O)c2ccc([N+](=O)[O-])cc2)cc1 | inactive: 0.73% |
| C(Cc1nn[nH]n1)Cc1nn[nH]n1 | inactive: 3.55% |
| O=[As](O)(c1ccccc1)c1ccc(O)cc1 | inactive: -0.65% |
| O=[N+]([O-])c1ncn(CCn2cnc([N+](=O)[O-])n2)n1 | inactive: -0.1% |
| CC(=O)NC(SC(=S)N(C)C)C(Cl)(Cl)Cl (stereo not given) | inactive: -3.54% |
| O=P1(N(CCCl)CCCl)OCCC2CCCCN21 (stereo not given) | inactive: -0.35% |
| c1ccc(-c2nn[nH]n2)c(-c2nn[nH]n2)c1 | inactive: 0.25% |
| Cc1ccc(NP(=O)(Oc2cccc(C)c2)Oc2cccc(C)c2)nc1 | inactive: -1.3% |
| O=C(NC1CCS(=O)(=O)C1)NP(=S)(Oc1ccccc1)Oc1ccccc1 (stereo not given) | inactive: -0.02% |
| CCNC(=S)/N=C(\N)N[N+](=O)[O-] | inactive: 1.55% |
| Cc1ccccc1OP(=O)(Nc1ccccn1)Oc1ccccc1C | inactive: -8.3% |
| CC(NC(=O)COC(=O)C(O)(c1ccccc1)c1ccccc1)c1ccccc1 (stereo not given) | inactive: -2.67% |
| CN(C)C(=O)Oc1noc2ccccc12 | inactive: 2.73% |
| O=c1c2cc([N+](=O)[O-])ccc2[nH]c2c([N+](=O)[O-])cc([N+](=O)[O-])cc12 | inactive: 16.6% |
| O=C(OC1CN2CCC1CC2)c1ccccc1 (stereo not given) | inactive: 5.73% |
| CCC(=O)N1C2C3N(C(=O)CC)C1C1N(C(=O)CC)C(C(N1C(=O)CC)N3C(=O)CC)N2C(=O)CC | inactive: 1.33% |
| COC(=O)c1cc2c(s1)N=C(c1ccccc1)N(C)P2(=O)N1CCOCC1 (stereo not given) | inactive: 9.12% |
| Cc1ccc(OP(=O)(Nc2ccccn2)Oc2ccc(C)cc2)cc1 | inactive: -4.87% |
| CC(=O)NC(SC(=S)N(CC(C)C)CC(C)C)C(Cl)(Cl)Cl (stereo not given) | inactive: -17.2% |
| CC(C)(C)C(=O)NC(Sc1ccccc1)C(Cl)(Cl)Cl (stereo not given) | inactive: -0.91% |
| CCc1cc(O)c([N+](=O)[O-])c(C)c1[N+](=O)[O-] | inactive: -0.32% |
| O=P1(Nc2nc3ccc(Cl)cc3s2)COc2ccccc2O1 (stereo not given) | inactive: 0.17% |
| CCOc1ccc(C2=NCC(CBr)S2)cc1 (stereo not given) | inactive: 2.16% |

| Structure (SMILES) | activation |
| --- | --- |
| CC(=O)Nc1ccc([As](=O)(O)O)c(O)c1 | inactive: 2.46% |
| CC(=O)Nc1ccc(Oc2c([N+](=O)[O-])cc([N+](=O)[O-])cc2[N+](=O)[O-])cc1 | inactive: 3.46% |
| Cc1ccccc1CN(C)C(=O)COC(=O)C(O)(c1ccccc1)c1ccccc1 | inactive: -1.28% |
| C[C@@H]1C=CCP(=O)(Oc2ccccc2)O1 (stereo not given in full) | inactive: 0.7% |
| C[C@H]1OP(=O)(Oc2ccccc2)C[C@@H]2O[C@@H]21 (stereo not given in full) | inactive: 5.48% |
| N#C/C(=C\c1ccc(N(CCBr)CCBr)cc1)C(N)=O | inactive: -2.01% |
| CC(=O)c1ccc(N2CC2c2ccncc2)cc1 (stereo not given) | inactive: 2.65% |
| COC(=O)C1(C)COP(=O)(NCc2ccccc2)OC1 (stereo not given) | inactive: 1.07% |
| O=[As](O)(c1cccc(O)c1)c1cccc(O)c1 | inactive: 0.52% |
| Cc1cccc(OCC(=O)OC2CN3CCC2CC3)c1 (stereo not given) | inactive: -0.05% |
| O=C(OC1CN2CCC1CC2)c1ccc(Cl)cc1 (stereo not given) | inactive: 10.1% |
| COc1cc(C(=O)NCC2(N3CCOCC3)CCCCC2)cc(Cl)c1OC(C)C | inactive: -2% |
| O=[As](O)(O)c1cccnc1 | inactive: 2.23% |
| CS(=O)(=O)c1ccc(Cl)c(NC(=O)COC(=O)C(O)(c2ccccc2)c2ccccc2)c1 | inactive: -5.78% |
| COc1cc(C2NCCC3(OCCO3)C2(C)C)cc(OC)c1OC (stereo not given) | inactive: 2.5% |
| CCOP(=O)(Nc1cccc2ccccc12)OCC | inactive: 3.05% |
| Nc1cccc2c([As](=O)(O)O)cccc12 | inactive: 1.57% |
| Cc1ccc(NCCc2c([N+](=O)[O-])cc([N+](=O)[O-])cc2[N+](=O)[O-])cc1 | inactive: -2.72% |
| CCCOP(=S)(Nc1nc(N)cc(=O)[nH]1)OCCC | inactive: -8.1% |
| O=C(O)COc1ccc([As](=O)(O)O)cc1[N+](=O)[O-] | inactive: 2.7% |
| Nc1ccccc1[As](=O)(O)c1ccccc1 | inactive: -1.09% |
| CCOP1(=S)c2c(C)nn(CCC#N)c2N=C(c2ccccc2F)N1C (stereo not given) | inactive: 1.58% |
| O=P(Nc1nccs1)(Oc1ccccc1)Oc1ccccc1 | inactive: -6.1% |
| N#CCCN(C(=O)COC(=O)C(O)(c1ccccc1)c1ccccc1)c1ccc(F)cc1 | inactive: -3.56% |
| CN(C(=O)Cc1ccccc1)[C@@H]1CC[C@]2(CCCO2)C[C@H]1N1CCCC1 | inactive: 4.53% |

| Structure (SMILES) | activation |
| --- | --- |
| CCOP1(=S)c2c(C)nn(CCC#N)c2N=C(c2ccc(F)cc2)N1C (stereo not given) | inactive: 4.81% |
| CN(C)C(=O)c1cc([N+](=O)[O-])cc2c1-c1c(cc([N+](=O)[O-])cc1[N+](=O)[O-])C2=O | inactive: -19.9% |
| O=[N+]([O-])c1ccc2c(c1)nnn2O | inactive: 2.75% |
| CN(C(=O)Cc1ccc(Cl)c(Cl)c1)[C@H]1CC[C@@]2(CCCO2)C[C@@H]1N1CCCC1 | inactive: 2.84% |
| NC(=O)Nc1ccc([As](=O)(O)O)cc1 | inactive: -0.19% |
| CN(C)C1(CNC(=O)c2ccc(S(C)(=O)=O)cc2)CCCCC1 | inactive: -1.33% |
| O=C(/C=C/c1ccccc1)OC1CN2CCC1CC2 (stereo not given) | inactive: -3.43% |
| CCCC1OP(=O)(Nc2ccccc2)OCC1CC (stereo not given) | inactive: 1.66% |
| Cc1nn(-c2ccccc2)c2c1P(=O)(N1CCOCC1)N(C)C(c1ccccc1)=N2 (stereo not given) | inactive: -5.03% |
| Cc1ccc(C(=O)OC2CN3CCC2CC3)cc1 (stereo not given) | inactive: 0.01% |
| CC1CCC(C(C)C)C(OP(=O)(Nc2ccccn2)c2ccccc2)C1 (stereo not given) | inactive: -24.1% |
| Nc1cccc([As](=O)(O)c2ccccc2)c1 | inactive: 3.02% |
| NS(=O)(=O)c1cccc(NC(=O)COC(=O)C(O)(c2ccccc2)c2ccccc2)c1 | inactive: -5.35% |
| O=P1(Nc2ccc(Br)cn2)COc2ccccc2OC1 | inactive: 5.6% |
| O=[As](O)(c1cccs1)c1cccs1 | inactive: 4.61% |
| Cc1ccc(OCC(=O)OC2CN3CCC2CC3)cc1 (stereo not given) | inactive: 2.83% |
| Cc1ccc(S(=O)(=O)N(CCCN)CCCc2c(C)nc(N)[nH]c2=O)cc1 | inactive: -0.05% |
| O=P1(Nc2ncccn2)COc2ccccc2OC1 | inactive: 1.09% |
| Clc1n[nH]nc1-c1nn[nH][15n]1 | inactive: 0.63% |
| O=P1(N(CCCl)CCCl)NCCC(C(F)(F)F)O1 (stereo not given) | inactive: -3.66% |
| CC(C)(C)C(=O)NC(Sc1ncccn1)C(Cl)(Cl)Cl (stereo not given) | inactive: 5.81% |
| CCC1=CC2Cc3nc4ccc(Cl)cc4c(N)c3C(C1)C2 (stereo not given) | inactive: -52.8% |
| O=P1(Nc2ccccn2)COc2ccccc2OC1 | inactive: 0.64% |
| CCOP(=O)(NC(=NC(C)c1ccccc1)NC(C)c1ccccc1)OCC (stereo not given) | inactive: -7.82% |
| CN(CCCl)Cc1cc(Cl)c(NC2=NCCN2)c(Cl)c1 | inactive: 1.56% |
